This is a selection; strong and weak results do not stand in their true shares. Records with an inconclusive call do not appear. Activity calls are given as the source filed them. Calls follow the shape of the dose curve; as a rule, active = well fitted inhibition curve with a large enough effect; inconclusive = small, poorly fitted or top-dose-only effect; inactive = no such curve, though single readings can be large or run the other way.
Target: 3-hydroxyacyl-CoA dehydrogenase type-2 (Homo sapiens) (UniProt Q99714)
Test: qHTS Assay for Inhibitors of HSD17B4, hydroxysteroid (17-beta) dehydrogenase 4;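 also: the protocol describes HADH2 (HSD17B10) and not the HSD17B4 of the title; nearly all actives have a fitted effect of over 70% in size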
Conditions: recombinant HSD17B10, NADH fluorescence kinetic; series mostly up to 57.1 µM; activity change, negative = inhibition: at the top concentration
% is scaled to controls: 0 for no effect and ±100 for the full control effect.

Compound	activity change, negative = inhibition
O=[As](O)(O)c1ccc([As](=O)(O)O)cc1	inactive: -2.56% [at 11.4 µM]
O=[N+]([O-])c1cccc([N+](=O)[O-])c1	inactive: -5.29%
CCOP1(=S)c2c(C)nn(CCC#N)c2N=C(c2ccccc2F)N1C (stereo unspecified)	inactive: -6.07%
CCOP1(=S)c2c(C)nn(CCC#N)c2N=C(c2ccc(F)cc2)N1C (stereo unspecified)	inactive: -17.2%
Cc1ccc([N+](=O)[O-])cc1[N+](=O)[O-]	inactive: 1.78%
NC(=O)Nc1ccc([As](=O)(O)O)cc1	inactive
CN(C(=O)Cc1ccc(Cl)c(Cl)c1)[C@@H]1CC[C@@]2(CCCO2)C[C@H]1N1CCCC1	inactive: 11%
Cc1ccc(C)c(NP(C)(=O)Oc2ccccc2)c1 (stereo unspecified)	inactive: 2.3%
O=C(CC(=O)c1ccccc1)O[C@H]1CN2CCC1CC2	inactive: 9.28% [at 11.4 µM]
NS(=O)(=O)Cc1ccc([As](=O)(O)O)cc1	inactive: 1.34% [at 11.4 µM]
Clc1n[nH]nc1-c1nn[nH][15n]1	inactive: -2.11%
CN(CCCl)Cc1cc(Cl)c(NC2=NCCN2)c(Cl)c1	inactive: -6.78%
O=P1(Nc2ccccn2)COc2ccccc2OC1	inactive: -0.628%
Cc1nc2ccc3ccccc3c2s1.O=[N+]([O-])c1cc([N+](=O)[O-])c(O)c([N+](=O)[O-])c1	inactive: -10.8%
CN(C(=O)Cc1ccc(Cl)c(Cl)c1)[C@@H]1CCCC[C@H]1N1CCCC1	inactive
Cc1nn(-c2ccccc2)c2c1P(=O)(N1CCOCC1)N(C)C(c1ccccc1)=N2 (stereo unspecified)	inactive: 6.27%

Compound	activity change, negative = inhibition
O=P1(Nc2ccc(Br)cn2)COc2ccccc2OC1	inactive: 11.5%
O=P1(Nc2ncccn2)COc2ccccc2OC1	inactive: 4.26%
N1=C(c2nnc(-c3nn[nH]n3)nn2)NNN1	inactive: 2.18% [at 11.4 µM]
CN(N=O)C(=N)N[N+](=O)[O-]	inactive: 6.41%
CP(=S)(Nn1cnnc1)Oc1ccccc1 (stereo unspecified)	inactive: 0.847%
O=C(O)[C@@H](O)c1ccc([As](=O)(O)O)cc1	inactive: 6.07% [at 11.4 µM]
CP(=O)(NC(=O)Nc1ccccc1)Oc1ccccc1 (stereo unspecified)	inactive: -1.38%
O=C(COc1ccccc1)OC1CN2CCC1CC2 (stereo unspecified)	inactive: 6.16%
COP1(=S)c2c(C)nn(CCC#N)c2N=C(c2ccc(F)cc2)N1C (stereo unspecified)	inactive: 3.76%
CCOP(C)(=S)SCC(=O)NC(C)C(=O)O (stereo unspecified)	inactive: 11.1%
NC(=O)Nc1cc([As](=O)(O)O)cc(I)c1O	inactive: -6.4% [at 11.4 µM]
O=C(OC1CN2CCC1CC2)C12CC3CC(CC(C3)C1)C2 (stereo unspecified)	inactive: -0.206%
O=[N+]([O-])[O-].[NH4+]	inactive: 1.36%
Cc1ccc(NP(C)(=O)Oc2ccccc2)c(C)c1 (stereo unspecified)	inactive: -2.35%
[N-]=[N+]=NCC(N)=O	inactive: -1.72% [at 11.4 µM]

Reference: PubChem BioAssay AID893 (National Center for Advancing Translational Sciences (NCATS), 2007)
